This assay has as its target Mu-type opioid receptor (Homo sapiens, UniProt P35372).

Sequences of proteins named here, by UniProt entry; tags and fusion partners are left off.
UniProt P35372, whole entry: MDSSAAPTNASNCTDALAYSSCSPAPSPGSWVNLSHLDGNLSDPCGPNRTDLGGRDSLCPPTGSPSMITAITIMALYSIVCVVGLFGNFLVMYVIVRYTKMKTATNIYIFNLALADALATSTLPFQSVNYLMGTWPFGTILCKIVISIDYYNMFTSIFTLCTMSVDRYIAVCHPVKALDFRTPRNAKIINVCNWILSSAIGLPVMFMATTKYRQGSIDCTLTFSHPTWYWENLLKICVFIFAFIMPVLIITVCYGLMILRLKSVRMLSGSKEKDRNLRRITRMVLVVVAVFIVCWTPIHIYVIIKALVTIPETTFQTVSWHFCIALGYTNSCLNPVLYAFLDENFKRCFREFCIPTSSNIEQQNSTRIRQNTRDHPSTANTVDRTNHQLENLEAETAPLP

This is an account of results in ChEMBL document CHEMBL5126521, “Analgesic Opioid Ligand Discovery Based on Nonmorphinan Scaffolds Derived from Natural Sources” (J Med Chem, 2022).

Molecules are shown by their SMILES.

Take `C[C@@H](NC(=O)[C@@H](N)Cc1ccc(O)cc1)C(=O)N[C@@H](Cc1ccccc1)C(=O)NCC(=O)N[C@@H](Cc1ccc(O)cc1)C(=O)N1CCC[C@H]1C(=O)N[C@@H](CO)C(N)=O`: the affinity corresponds to a Ki of 2170 nM.

The compound `C[C@@H](NC(=O)[C@@H](N)Cc1ccc(O)cc1)C(=O)N[C@@H](Cc1ccccc1)C(=O)NCC(=O)N[C@@H](Cc1ccc(O)cc1)C(=O)N1CCC[C@H]1C(=O)N[C@@H](CO)C(N)=O` [DERMORPHIN] had a Ki of 0.54 nM.
